The values that follow are results of earlier work, collected in patent US8697648B2, “Protein agent for diabetes treatment and β cell imaging” (Georgia State University Research Foundation, Inc., priority 2009, dated 2014).

The conditions of this data set: in human; cited from earlier work.

In the case of Exendin 4 [reference compound], the blood circulation time entry is “approximately 3 hour”.
